In data set [1] the test system is BRAF mutant A375 xenograft model. The conditions noted are these: mouse, in vivo.
Data set [2] deals with pERK levels in RAS-mutated cell lines. Description: cells. The conditions noted are these: 1 h, read-out: IC50 of pERK levels.
The test system of data set [3] is NCI-H358 SOS2 knockout cells.
Another data set deals with foreskin fibroblasts. Description: cells. To be noted: Fibroblast, read-out: IC50, proliferation.
Data set [4] concerns KRAS G12C-mutated MIA PaCa-2 xenografts. To be noted: 12 or 50 mg/kg twice daily.

Consider `COc1cc2nc(C)nc(N[C@H](C)c3cc(N)cc(C(F)(F)F)c3)c2cc1O[C@H]1CCOC1` [BI-3406], for which, in data set [1], the anti-tumor response entry is “No anti-tumor response”. For the same compound, the IC50 in data set [2] was 17 to 57 nM; in the data set on foreskin fibroblasts, 37 nM. Moreover, the anti-proliferative effect entry in data set [3] is reported as “enhanced”. Also, in data set [4], the tolerability result is on record as “well tolerated”.

The values above are taken from PMC7892644 (Cancer discovery, 2020).
